Measurements published in publication PMC5187433.
Read-outs that look alike come from different tables or passages of the source.

Experiments:
[1] = target: T1, N-BRDT(1) (Homo sapiens, UniProt Q58F21 1-143); test: EMSA; EMSA: 20 mM Tris pH 7.5, 100 mM NaCl, 5 mM DTT, 0.5 mM EDTA, 4 C; ITC: 20 mM Tris pH 8.0, 150 mM NaCl, 1 mM EDTA, 1 mM TCEP, 20 C; NMR at 34 C
[2] = target: T1, N-BRDT(1)

Binder | Kd [1] | Kd [2]
66 bp DNA (dsDNA) DNA 1: CGATATAGTGTAACGGCTATCACATCACGCTTTCACCGTGGAGACCGGGGTTCGACTCCCCGTATC DNA 2: GATACGGGGAGTCGAACCCCGGTCTCCACGGTGAAAGCGTGATGTGATAGCCGTTACACTATATCG | 29 µM | 33 µM
25 bp DNA (dsDNA) DNA 1: CGAAGTGGCCGAGTGGTCTATGGCG DNA 2: CGCCATAGACCACTCGGCCACTTCG | 52 µM | –
